Results: patent US6916823B2, “Method of treatment of dopamine-related dysfunction” (Purdue Research Foundation, priority 2001, dated 2005)

System: unilateral 6-OHDA rats
Assay: rat unilateral 6-OHDA rotation model of Parkinson's disease
Conditions: in vivo
From the text: Summary. In the rat unilateral 6-hydroxydopamine (6-OHDA) rotation model of Parkinson's disease, 6-OHDA is infused unilaterally into the medial forebrain bundle, the substantia nigra, or the striatum. […] When challenged with direct-acting dopamine receptor agonists, unilateral 6-OHDA rats turn contralaterally (away from the side of the lesion) because of the increased sensitivity of the postsynaptic dopamine receptors on the lesioned side. The experiments described below examine tolerance induced by the full D1 agonist, dinapsoline, using the 6-OHDA model.
Subjects. Adult male Sprague-Dawley Rats (Hilltop Laboratories, Chatsworth, Calif.), weighing between 280 and 320 grams, were used as subjects. Animals were housed individually with food and water available ad libitum, except as noted below. The light:dark schedule was 12 h:12 h, and testing was performed during the light cycle. […]
Acute Dinapsoline Administration. Beginning 1 week after the screening dose with apomorphine, subjects (n=12) were tested once per week with dinapsoline (0.02, 0.2, or 2 mg/kg) or vehicle (s.c.) using a counterbalanced design, and rotation behavior was monitored for 10 h. […] Rats were fasted for 16 h before dosing with oral gavage, and rotation behavior was monitored for 10 h.

For `CCCN1CCC[C@@H]2Cc3n[nH]cc3C[C@H]21` [quinpirole, reference compound], the rotation was “robust rotation” and the “rotation on day 4” value was “equal rotation in both groups”.
